Data on one molecule can be found in patent publication EP0901466B1, “BIPHENYLSULFONAMIDE MATRIX METALLOPROTEINASE INHIBITORS” (WARNER-LAMBERT COMPANY, priority 1996, dated 1997).

Sequences of proteins named here, by UniProt entry; tags and fusion partners are left off. Residues count along the entry.
UniProt P14780, 94-707, species assumed: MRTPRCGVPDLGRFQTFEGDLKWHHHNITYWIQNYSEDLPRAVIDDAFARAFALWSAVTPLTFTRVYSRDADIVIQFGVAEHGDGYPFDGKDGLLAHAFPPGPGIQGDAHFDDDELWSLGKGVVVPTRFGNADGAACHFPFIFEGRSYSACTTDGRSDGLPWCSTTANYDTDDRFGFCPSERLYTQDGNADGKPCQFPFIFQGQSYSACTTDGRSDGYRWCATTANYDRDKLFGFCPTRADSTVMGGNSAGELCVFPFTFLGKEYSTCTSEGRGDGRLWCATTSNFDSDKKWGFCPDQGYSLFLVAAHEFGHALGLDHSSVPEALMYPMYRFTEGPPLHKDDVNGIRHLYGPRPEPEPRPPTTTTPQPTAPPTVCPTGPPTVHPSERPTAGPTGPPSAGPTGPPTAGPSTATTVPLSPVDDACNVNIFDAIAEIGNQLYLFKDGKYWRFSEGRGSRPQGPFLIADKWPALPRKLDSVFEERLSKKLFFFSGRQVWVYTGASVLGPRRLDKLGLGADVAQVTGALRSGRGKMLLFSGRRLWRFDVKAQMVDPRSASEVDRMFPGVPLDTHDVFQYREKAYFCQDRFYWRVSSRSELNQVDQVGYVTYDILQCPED

The assay has as its target T1, full-length gelatinase B (Homo sapiens, UniProt P14780).
T1 construct: full-length gelatinase B (FLGB) hydrolysis of thiopeptolide
The assay is described as follows: full-length gelatinase B hydrolysis of thiopeptolide (FLGB). The format is biochemical. As to conditions: thiopeptolide substrate. An excerpt:
The invention compounds have been evaluated in standard in vitro assays and shown to be potent inhibitors of several matrix metalloproteinase enzymes. Specifically, the compounds have been evaluated for their ability to inhibit gelatinase A-catalyzed hydrolysis of thiopeptolide and gelatin, and the stromelysin-catalyzed hydrolysis of thiopeptolide.
The compounds were additionally evaluated for their ability to inhibit full-length collagenase hydrolysis of thiopeptolide substrate (FLC) and full-length gelatinase B (FLGB) hydrolysis of thiopeptolide.

On to `CC(C)[C@H](NS(=O)(=O)c1ccc(-c2cccc(Br)c2)cc1)C(=O)O` [Example 7, (S)-2-(3'-Bromo-biphenyl-4-sulfonylamino)-3-methyl-butyric acid], for which the IC50 (commonly the point on the concentration scale where inhibition reaches its midpoint) was found to be 30 µM.
